Amino acid sequences for entries named in this document (tags omitted). A change or cut given only in a name is not applied to a line headed by its entry.
UniProt Q06187, whole entry L528W: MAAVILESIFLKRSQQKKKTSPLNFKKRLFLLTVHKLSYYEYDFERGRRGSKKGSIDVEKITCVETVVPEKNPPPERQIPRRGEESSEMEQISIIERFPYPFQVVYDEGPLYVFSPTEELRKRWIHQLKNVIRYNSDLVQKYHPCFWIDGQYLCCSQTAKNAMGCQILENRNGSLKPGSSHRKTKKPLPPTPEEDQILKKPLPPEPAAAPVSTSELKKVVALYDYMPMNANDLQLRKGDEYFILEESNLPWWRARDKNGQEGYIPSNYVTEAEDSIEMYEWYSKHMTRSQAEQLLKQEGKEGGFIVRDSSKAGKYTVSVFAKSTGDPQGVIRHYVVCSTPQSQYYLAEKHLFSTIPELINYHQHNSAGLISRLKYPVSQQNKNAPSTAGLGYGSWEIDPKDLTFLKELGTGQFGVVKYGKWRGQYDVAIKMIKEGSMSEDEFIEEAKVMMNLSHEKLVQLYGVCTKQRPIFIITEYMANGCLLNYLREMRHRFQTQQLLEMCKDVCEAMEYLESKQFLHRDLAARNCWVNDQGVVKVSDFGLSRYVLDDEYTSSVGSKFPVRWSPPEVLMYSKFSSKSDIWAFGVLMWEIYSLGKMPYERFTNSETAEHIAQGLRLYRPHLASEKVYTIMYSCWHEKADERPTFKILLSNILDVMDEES
UniProt Q06187, whole entry: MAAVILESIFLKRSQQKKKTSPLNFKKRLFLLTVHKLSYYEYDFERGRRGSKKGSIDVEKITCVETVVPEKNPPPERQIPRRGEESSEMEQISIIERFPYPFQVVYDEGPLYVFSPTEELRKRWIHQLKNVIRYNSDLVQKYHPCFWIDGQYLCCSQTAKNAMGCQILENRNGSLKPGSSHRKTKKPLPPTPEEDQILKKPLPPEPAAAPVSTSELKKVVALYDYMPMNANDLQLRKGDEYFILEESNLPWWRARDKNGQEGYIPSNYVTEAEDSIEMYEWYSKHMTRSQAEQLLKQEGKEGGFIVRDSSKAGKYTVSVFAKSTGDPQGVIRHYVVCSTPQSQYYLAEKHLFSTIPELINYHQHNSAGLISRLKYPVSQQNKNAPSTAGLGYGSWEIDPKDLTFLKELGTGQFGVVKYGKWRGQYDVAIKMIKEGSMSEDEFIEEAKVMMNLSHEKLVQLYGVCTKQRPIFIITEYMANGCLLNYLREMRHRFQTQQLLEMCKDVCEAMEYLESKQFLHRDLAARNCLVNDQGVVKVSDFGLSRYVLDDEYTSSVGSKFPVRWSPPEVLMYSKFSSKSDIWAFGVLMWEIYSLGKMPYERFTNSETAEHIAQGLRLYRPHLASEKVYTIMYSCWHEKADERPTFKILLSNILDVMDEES

In patent EP4755887A1, “POLYCYCLIC FUSED-RING BTK DEGRADATION AGENT AND USE THEREOF IN MEDICINE” (Haisco Pharmaceutical Group Co., Ltd., priority 2023, dated 2025):

Legend:
BTK = BTK (Homo sapiens, UniProt Q06187); assay: Detection of BTK degradation in Mino cells; settings: read-out: DC50 values for BTK degradation in Mino cells, 6 hours, automated western blot
BTK L528W = BTK L528W (Homo sapiens, UniProt Q06187, L528W); assay: Detection of BTK degradation in REC-1 BTK L528W mutant cells; settings: for BTK degradation rate %: 5 nM concentration, REC-1 BTK L528W cells, 6 hours; for DC50: read-out: DC50 values for BTK degradation in REC-1 BTK L528W cells, 6 hours, automated western blot
TMD-8 cells = assay: TMD-8 cell proliferation inhibitory activity test; settings: read-out: IC50 values for inhibiting TMD-8 cell proliferation, 72 hours, CellTiter-Glo
Method: TMD-8 is a human lymphoma cell line that expresses BTK protein and is used to evaluate the efficacy of compounds. TMD-8 cells were maintained in RPMI-1640 + 10% FBS + 1% penicillin-streptomycin solution, and cultured in a 37°C, 5% CO2 incubator. The cells were seeded into a 96-well culture plate (Biosharp, BS-MP-96W) at a density of 3,000 cells per well. After seeding, compounds at various concentrations were added, with a final volume of 100 µL per well, and the plate was incubated for 72 hours in the 37°C, 5% CO2 incubator. Following incubation, 50 µL of a detection solution (CellTiter-Glo®, Promega, G7573) was added to each well, and the plate was uniformly mixed for 2 minutes and incubated at room temperature for 10 minutes. The chemiluminescence reading was then measured using a microplate reader (Molecular Devices, SpectraMax Paradigm). The inhibition rate of cell proliferation by the compounds was calculated according to Equation (1), where RLU compound represents the readout from the compound-treated well, RLU control represents the readout from the DMSO vehicle control well, and RLU blank represents the readout from the cell-free well. […] The concentration-response curve was generated by fitting the data to a four-parameter equation, and the IC50 values for the compound's inhibition of cell proliferation were calculated. […]

Caco-2 cells = assay: Caco2 permeability test; settings: Caco-2 monolayer, 2 µM, 2 hours, pH 7.4

Row | Compound | DC50 (BTK) [nM] | BTK degradation rate % (BTK L528W) [%] | DC50 (BTK L528W) [nM] | IC50 (TMD-8 cells) [nM] | Efflux Ratio (Caco-2 cells) | Mean Papp A to B (Caco-2 cells) | Mean Papp B to A (Caco-2 cells)
1 | CN1CCN([C@@H]2CCCN(c3cnc(C(N)=O)c(Nc4ccc(N5CCC(CN6CCN7c8cc(F)c(C(=O)N[C@H]9CCC(=O)NC9=O)cc8CC[C@H]7C6)CC5)cc4)n3)C2)C1=O | < 10 | >90 | < 5 | < 20 | 0.481 | 2.26 10^-6 cm/s | 1.09 10^-6 cm/s
2 | CN1CCN([C@@H]2CCCN(c3cnc(C(N)=O)c(Nc4ccc(N5CCC(CN6CCN7c8cc(F)c(C(=O)N[C@H]9CCC(=O)NC9=O)cc8CC[C@@H]7C6)CC5)cc4)n3)C2)C1=O | < 10 | >90 | < 5 | < 20 | 0.296 | 2.20 10^-6 cm/s | 0.652 10^-6 cm/s
